The record followed here is publication PMC9868778 (Planta Medica, 2022).

Molecules are shown by their SMILES.

A short description of data set [1]: Stability of compounds in PBS, perfusion medium and placental homogenate. The data set is classed as in vitro ADME, human. To be noted: 360 min, 4 °C and 37 °C.
For data set [2] the following is noted: after 360 min; antipyrine from control perfusions.

With `Cc1cc(=O)n(-c2ccccc2)n1C` [antipyrine], the “stability data in PBS compared with PM” value in data set [1] is recorded as “very comparable”. Also, the “fetal-maternal concentration ratio (FM ratio)” value in data set [2] came to 0.95.
As to `CN(C)CCCC1(c2ccc(F)cc2)OCc2cc(C#N)ccc21` (stereo not shown) [citalopram], the “stability data in PBS compared with PM” value in data set [1] is on record as “very comparable”. Also, the “fetal-maternal concentration ratio (FM ratio)” value in data set [2] worked out at 0.63.
